We go through 56 compounds from PubChem BioAssay AID493160 (Sanford-Burnham Center for Chemical Genomics, 2011).

Sequences of proteins named here, by UniProt entry; tags and fusion partners are left off.
UniProt Q2TB90, whole entry: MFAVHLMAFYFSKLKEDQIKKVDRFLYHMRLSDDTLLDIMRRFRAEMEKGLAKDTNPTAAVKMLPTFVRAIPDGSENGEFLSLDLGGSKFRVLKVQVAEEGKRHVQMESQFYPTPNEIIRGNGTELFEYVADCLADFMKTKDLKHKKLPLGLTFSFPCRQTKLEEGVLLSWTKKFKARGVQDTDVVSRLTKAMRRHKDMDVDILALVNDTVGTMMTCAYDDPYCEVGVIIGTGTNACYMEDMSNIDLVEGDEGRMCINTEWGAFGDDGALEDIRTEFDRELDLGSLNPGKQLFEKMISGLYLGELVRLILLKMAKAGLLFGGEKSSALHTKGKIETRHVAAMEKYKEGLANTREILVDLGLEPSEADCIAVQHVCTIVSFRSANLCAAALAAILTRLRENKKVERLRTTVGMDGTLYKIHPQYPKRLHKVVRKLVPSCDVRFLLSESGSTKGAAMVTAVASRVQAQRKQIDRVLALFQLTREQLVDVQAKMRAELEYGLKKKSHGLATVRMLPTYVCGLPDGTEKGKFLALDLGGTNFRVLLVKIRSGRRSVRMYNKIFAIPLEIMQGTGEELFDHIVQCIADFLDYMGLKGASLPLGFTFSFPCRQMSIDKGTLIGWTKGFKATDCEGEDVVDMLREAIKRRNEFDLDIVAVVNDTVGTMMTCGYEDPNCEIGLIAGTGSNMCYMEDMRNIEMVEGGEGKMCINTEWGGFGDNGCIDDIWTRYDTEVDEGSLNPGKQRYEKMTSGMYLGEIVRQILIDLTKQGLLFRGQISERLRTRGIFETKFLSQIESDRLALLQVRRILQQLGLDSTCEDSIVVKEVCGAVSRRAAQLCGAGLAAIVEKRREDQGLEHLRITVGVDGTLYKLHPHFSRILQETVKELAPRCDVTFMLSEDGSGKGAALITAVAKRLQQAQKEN

The structures appear in SMILES notation. This is a selection; strong and weak results do not stand in their true shares. Some salts and complexes are drawn in separate pieces, as the source files them; their charges need not balance. Calls of active or inactive are those of the source.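 How the source made its calls: active means inhibition above about 35% when tested at 20 µM (limit read from the data); inactive means the rest.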

The target of this test is Hexokinase HKDC1 (Homo sapiens) (UniProt Q2TB90). Nature of the test: HKDC1 hexokinase inhibitors, primary screen, biochemical, fluorescence, uHTS (AID 493160).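 Further: plate controls were DMSO wells with enzyme for no effect and DMSO wells lacking enzyme for full effect.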 The note with it: recombinant HKDC1, G6PDH/diaphorase resazurin coupled fluorescence; at 20 µM; active compounds read high. (Resazurin is reduced to fluorescent resorufin, in cell work by metabolically active cells.)
Take `CCc1ccc(OP(C)(=O)Nc2cccnc2)cc1` (stereo unspecified): the inhibition was inactive: -2.12%.
On to `CP(=O)(Oc1ccccc1)N1CCOC1=O` (stereo unspecified), for which the inhibition was inactive: -1.64%.
With `O=C(OCCCN1CCCC1)C(O)(c1ccccc1)C1CCCCC1` (stereo unspecified), the inhibition was inactive: -5.62%.
Turning to `COc1ccccc1OP(C)(=O)Nc1c(C)n(C)n(-c2ccccc2)c1=O` (stereo unspecified), the inhibition was inactive: 0.96%.
Turning to `COc1ccc(OP(C)(=O)Nc2ccc(Br)cc2)cc1` (stereo unspecified), the inhibition was inactive: -1.01%.
For the compound `CCN(CC)CC(O)COC(=O)C(O)(c1ccccc1)C1CCCCC1` (stereo unspecified), the inhibition is inactive: -1.44%.
For the compound `CN(C)C(=O)c1c([N+](=O)[O-])cc([N+](=O)[O-])cc1[N+](=O)[O-]`, the inhibition was inactive: 18.1%.
Turning to `CP(=O)(Nc1ccc(Cl)cc1)Oc1ccc(F)cc1` (stereo unspecified), the inhibition was inactive: 2.57%.
Take `CC(C)(C)c1ccc(OP(C)(=O)O)cc1`: the inhibition was inactive: 10.7%.
Under `COc1ccccc1OP(C)(=O)Nc1ccccc1Br` (stereo unspecified) stands inactive: -6.01%; under `CP(=O)(OC12CC3CC(CC(C3)C1)C2)OC12CC3CC(CC(C3)C1)C2`, inactive: -6.27%.
For `CCOC(=O)c1ccc(NP(C)(=O)Oc2ccc(Cl)cc2)cc1` (stereo unspecified), the inhibition is inactive: -14.4%.
As to `Nc1ccc2c(ccc3cccnc32)n1.O=[N+]([O-])c1cc([N+](=O)[O-])c(O)c([N+](=O)[O-])c1`, the inhibition is inactive: 4.3%.
For the compound `COc1ccc(OP(C)(=O)Nc2ccccc2Br)cc1` (stereo unspecified), the inhibition is inactive: -9.63%.
Turning to `COc1ccccc1OP(C)(=O)Nc1ccc(C)c(C)c1` (stereo unspecified), the inhibition is inactive: -2%.
`Cc1cc(C)cc(OP(C)(=O)Nc2cccc(C(F)(F)F)c2)c1` (stereo unspecified): the inhibition was inactive: 4.27%.
On to `O=C1C(O)=C([N+](=O)[O-])C(=O)C(O)=C1[N+](=O)[O-]`, for which the inhibition was inactive: -1.86%.
As for `CP(=O)(OCCOc1ccccc1)OCCOc1ccccc1`, the inhibition was inactive: -4.89%.
As to `CP(=O)(Nc1ccc(Cl)cc1Cl)Oc1ccccc1` (stereo unspecified), the inhibition is inactive: -5.7%.
For `CCCCCCCCCCCCCCCC1C[N+](C)(C)CCOP(C)(=O)O1` (stereo unspecified) the value was inactive: 5.94%; for `CN(C)CCOC(=O)C(O)(c1ccccc1)C1CCCC1` (stereo unspecified), inactive: -10.1%.
As to `COc1ccc(OP(C)(=O)Nc2ccccn2)cc1` (stereo unspecified), the inhibition was inactive: 1.37%.
Turning to `COc1ccccc1OP(C)(=O)Nc1ccc(Br)cc1` (stereo unspecified), the inhibition is inactive: -4.89%.
As to `CCc1ccc(OP(C)(=O)O)cc1`, the inhibition was inactive: -7.53%.
Turning to `COc1ccccc1OP(C)(=O)Nc1ccc(C)cc1C` (stereo unspecified), the inhibition was inactive: 0.49%.
For the compound `CP(=O)(Nc1ccccn1)Oc1ccccc1` (stereo unspecified), the inhibition is inactive: -7.85%.
For `O=[N+]([O-])c1cc([N+](=O)[O-])c(Nc2ccccn2)c([N+](=O)[O-])c1`, the inhibition was inactive: 8.18%.
Turning to `Cc1c(NP(C)(=O)Oc2ccc(C(C)C)cc2)c(=O)n(-c2ccccc2)n1C` (stereo unspecified), the inhibition is inactive: 1.45%.
Regarding `CC(C)c1ccc(OP(C)(=O)Nc2ccc(SC(F)(F)F)cc2)cc1` (stereo unspecified), the inhibition is inactive: -0.17%.
Under `CP(=O)(Nc1ccccc1F)Oc1ccccc1` (stereo unspecified) stands inactive: -2.31%; under `COc1ccc2c(c1O)-c1c(O)c(OC)cc3c1[C@H](C2)[N+](C)(C)CC3.O=[N+]([O-])c1cc([N+](=O)[O-])c([O-])c([N+](=O)[O-])c1[O-]`, inactive: 7.38%; under `O=C(OCCN1CCN(CCOCc2ccccc2)CC1)C(O)(c1ccccc1)c1ccccc1`, inactive: 9.57%.
For `O=C(OC1CN2CCC1CC2)c1ccc([N+](=O)[O-])cc1` (stereo unspecified) the value was inactive: -7.74%; for `COc1ccc(OP(C)(=O)Nc2ccc(SC(F)(F)F)cc2)cc1` (stereo unspecified), inactive: 3.65%; for `CCOC(=O)c1ccc(NP(C)(=O)Oc2ccc(F)cc2)cc1` (stereo unspecified), inactive: -13.3%.
Turning to `O=[N+]([O-])c1cc([N+](=O)[O-])c(OC2CCCCC2O)c([N+](=O)[O-])c1` (stereo unspecified), the inhibition was inactive: 6.49%.
In the case of `CCCCCOc1ccc(NP(C)(=O)Oc2ccc(Cl)cc2Cl)cc1` (stereo unspecified), the inhibition was inactive: 5.48%.
For `CP(=O)(Nc1ccccc1)Oc1ccc(F)cc1` (stereo unspecified) the value was inactive: 0.18%; for `CCN(CC)CCCOC(=O)C(O)(c1ccccc1)C1CCCCC1` (stereo unspecified), inactive: -3.87%.
Regarding `Cc1c([N+](=O)[O-])cc([N+](=O)[O-])c(Br)c1[N+](=O)[O-]`, the inhibition is inactive: 2.99%.
Under `COc1ccc(NP(C)(=O)Oc2ccccc2OC)cc1` (stereo unspecified) stands inactive: 7.36%; under `CN(C)CCOC(=O)C(O)(c1ccccc1)C1CCCCC1` (stereo unspecified), inactive: 5.69%.
For the compound `COc1ccc(OP(C)(=O)Nc2cccc(Br)c2)cc1` (stereo unspecified), the inhibition was inactive: -0.13%.
For the compound `Cc1c(C(c2ccc3c(c2)OCO3)c2c(C)n(C)n(-c3ccccc3)c2=O)c(=O)n(-c2ccccc2)n1C.O=[N+]([O-])c1cc([N+](=O)[O-])c(O)c([N+](=O)[O-])c1`, the inhibition is inactive: 3.13%.
`Cc1cc(-c2cccc3ccccc23)c(C)cn1.O=[N+]([O-])c1cc([N+](=O)[O-])c(O)c([N+](=O)[O-])c1`: the inhibition is inactive: 2.6%.
For the compound `O=[N+]([O-])c1cc([N+](=O)[O-])c(NCC2CCS(=O)(=O)C2)c([N+](=O)[O-])c1` (stereo unspecified), the inhibition is inactive: -6.2%.
Turning to `O=[N+]([O-])c1ccc(OP2(=O)COCCO2)cc1` (stereo unspecified), the inhibition is inactive: -6.04%.
For the compound `CCOP(C)(=S)SCC(=O)NC(C)(CC)C(=O)O` (stereo unspecified), the inhibition is inactive: -3.18%.
Take `CP(=O)(Nc1ccc(SC(F)(F)F)cc1)Oc1ccc(F)cc1` (stereo unspecified): the inhibition is inactive: 4.1%.
`Cc1ccccc1NP(C)(=O)Nc1ccccc1C`: the inhibition is inactive: 1.54%.
Turning to `CP(=O)(Nc1ccc2c(c1)OCCO2)Oc1ccccc1` (stereo unspecified), the inhibition is inactive: -2.59%.
For `O=[N+]([O-])c1cc([N+](=O)[O-])c(-n2nnc3ccccc32)c([N+](=O)[O-])c1` the value was inactive: -1.12%.
Take `Cc1nc2ccc3ccccc3c2s1.O=[N+]([O-])c1cc([N+](=O)[O-])c(O)c([N+](=O)[O-])c1`: the inhibition was inactive: 2.62%.
For `O=[N+]([O-])c1cc([N+](=O)[O-])c(-c2cnn(-c3ccccc3)c2)c([N+](=O)[O-])c1` the value was inactive: 17.5%; for `CCOC(=O)C(CC)C1=NC(C)(C)Cc2ccccc21.O=[N+]([O-])c1cc([N+](=O)[O-])c(O)c([N+](=O)[O-])c1` (stereo unspecified), inactive: 0.34%.
With `O=[N+]([O-])c1cc([N+](=O)[O-])c(Nc2nnnn2CCO)c([N+](=O)[O-])c1`, the inhibition was inactive: -1.7%.

In general, inhibition refers to the drop in the measured response relative to a control, in per cent.
